Screening results from PubChem BioAssay.
TCR activator: activators of T cell receptors; 330,000 tested, under 10 active; AID 504894; Potency, µM (highest dose often 9.22 µM), without a hit: top-dose activation of IL-2 secretion, usual class: activators; primary human leukocytes, anti-CD3, IL-2 HTRF, 48 h; further: % of control where 0% means no effect
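IL-2 release read by HTRF sandwich (Eu cryptate donor, d2 acceptor, 665 nm emission) after 48 hr exposure of primary human leukocytes to compound together with anti-CD3 beads in the absence of co-stimulatory signals.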
A549 tox: counter-screen for Nrf2 inhibitors: cytotoxicity in A549 cells | A549 ARE-Fluc cells, CellTiter-Fluor viability, 18-24 h | Potency, µM (series often up to 46 µM), for the others: top-dose activity change, negative = cytotoxicity, actives largely listed as inhibitors | 390,000 tested, 0.16% active; further: potency means the concentration at half of the fitted maximal effect; on the % scale 0 is the no-effect control and ±100 the full control effect
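A549 ARE-Fluc cells in 5% FBS OPTI-MEM, 5000 cells/well, rested 2 h then exposed to compounds in concentration-response for 18-24 h at 37 °C. Viability by CellTiter-Fluor fluorescence (Ex 405/Em 525) after 30 min; luciferase luminescence (BugLite, 15 min, RT) read afterwards.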
miR-21 reporter: raises the signal of a miR-21 reporter | Potency, µM (doses to about 38.3 µM), for inactives: top-dose reporter change, positive = more light | HeLa miR-21 FLuc reporter, luciferase, 48 h | AID 2288 | 340,000 tested, under 10 active; active = well fitted rising curve with a large enough effect; inconclusive = small, poorly fitted or top-dose-only effect; inactive = no such curve, though single readings can be large or run the other way;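 also: % of control where 0% means no effect; miR-21 action dims this reporter so a rising signal means less miR-21 action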
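Using DMEM plus 10% FBS, HeLa miR-21-FLuc cells are incubated with test compounds (final up to about 40uM) for 48 hours; firefly luciferase signal is then imaged following reagent-mediated lysis.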
Nrf2 activator: activates Nrf2 signaling. AREc32 ARE-luciferase reporter (MCF7-derived line), luminescence, 24 h. Potency, µM (highest dose often 46.1 µM), for inactives: at the top dose activation, usual class: activators. 410,000 tested, 0.31% active; further: potency means the concentration at half of the fitted maximal effect; % of control where 0% means no effect; nearly all actives have a fitted effect of over 65% in size
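Each well held 1000 AREc32 cells, which were incubated with compound for 24 hr at 37 deg C after overnight attachment, and ARE reporter activity was quantified by firefly luciferase luminescence.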
ClpP mod: qHTS Assay for Activators of ClpP; purified B. subtilis ClpP, FRET peptide cleavage, 20 min; AID 651965, 2013; Potency, µM (doses to about 57.5 µM), inactives show at the highest dose activity change, negative = active; 340,000 tested, 1.9% active; ATP-dependent Clp protease proteolytic subunit (Bacillus subtilis (strain 168)), P80244; active means well fitted falling curve with a large enough effect; inconclusive means small, poorly fitted or top-dose-only effect; inactive means no such curve, though single readings can be large or run the other way; further: potency means the concentration at half of the fitted maximal effect; the source files actives as falling curves though it sought activators and does not explain the sign; nearly all actives have a fitted effect of over 65% in size
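Buffer: 100 mM Tris/HCl pH8, 100 mM KCl, 0.05% low protease BSA, 2.5% glycerol, 0.01% Tween-20. ClpP 10 microg/mL final; 20 min RT; delta FRET normalized to ADEP and DMSO controls.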
Nrf2 inh: inhibitors of Nrf2 signaling | AID 504444 | Potency, µM (highest dose often 46 µM), for inactives: at the highest dose activity change, negative = inhibition, actives largely listed as inhibitors | 360,000 tested, 2.1% active | A549 ARE-Fluc reporter, luciferase luminescence, 18-24 h; further: potency means the concentration at half of the fitted maximal effect; on the % scale 0 is the no-effect control and ±100 the full control effect; nearly all actives have a fitted effect of over 60% in size
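Cells were seeded and rested 2 h, then exposed to compounds for 18-24 h. CellTiter-Fluor was read first as a viability measure. BugLite was added 15 min before the final luminescent read of ARE-luciferase activity in A549 cells.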
An asterisk follows results filed as active; ? = inconclusive; . = no result given; [ ] = dose if it differs, or a comment. Shown are actives, neighbours in structure and some others; about 3.7% of the full set was active somewhere. Unless noted, the call rests on the fitted dose curve; in most records, active means well fitted curve in the direction sought with a large enough effect; inconclusive means small, poorly fitted or top-dose-only effect, or another doubt; inactive means no such curve, though single readings can be large; an effect the other way counts as inactive or inconclusive.

1) Cc1cccc(N2CCN(C(=O)COc3ccc4c(C)cc(=O)oc4c3C)CC2)c1C
2) CCc1cc(=O)oc2cc(OCC(=O)N3CCc4ccccc43)ccc12
3) Cc1cc(=O)oc2c(C)c(OCC(=O)N3CCN(c4ccc(F)cc4)CC3)ccc12
4) CCOC(=O)c1c(-c2ccccc2)oc2ccc(N(C(C)=O)S(=O)(=O)c3ccc(CC)cc3)cc12
5) CC(=O)Nc1ccc2nc(-c3ccc(Br)o3)[nH]c2c1
6) O=C(Nc1ccc2nc(-c3ccc(Br)o3)[nH]c2c1)c1cccs1

| Screen / compound no. | 1 | 2 | 3 | 4 | 5 | 6 |
| --- | --- | --- | --- | --- | --- | --- |
| TCR activator | -1.4% | . | 8.8% | . | 0.9%[46.1 µM] | 4.1% |
| A549 tox | -8.2% | . | 1.3% | -18.2% | 3.4% | ? |
| miR-21 reporter | -4.2% | -4.4% | 5.9% | 4.4% | -51.2% | -12.1% |
| Nrf2 activator | -0.1% | . | 0.6% | -0.2% | 3.1% | 6.7% |
| ClpP mod | . | . | . | 4.0% | ? | -2.4% |
| Nrf2 inh | 16.4µM* | . | ? | ? | ? | 18.4µM* |

7) CC(=O)Nc1ccc2nc(-c3cccn3C)[nH]c2c1
8) Cn1cccc1-c1nc2ccc(NC(=O)c3cccs3)cc2[nH]1
9) CC1=CC(O)=NS(=O)(=O)O1
10) C=CCN(c1ccccc1OC)S(=O)(=O)c1cccc(C(=O)OCC(=O)c2c(N)n(C)c(=O)n(C)c2=O)c1
11) Cc1nc2ccccc2c(=O)n1NS(C)(=O)=O
12) Cc1nc2ccccc2c(=O)n1NCc1cc(Br)cs1

| Screen / compound no. | 7 | 8 | 9 | 10 | 11 | 12 |
| --- | --- | --- | --- | --- | --- | --- |
| TCR activator | -5.3% | -14.1% | . | -0.2% | 6.2% | -0.2% |
| A549 tox | 0.1% | -13.9% | . | 0.6% | 2.4% | 6.0% |
| miR-21 reporter | -31.3% | -15.7% | . | . | 4.8% | 4.5% |
| Nrf2 activator | 7.1% | 3.3% | . | 2.6% | -0.7% | 7.94µM* |
| ClpP mod | . | -2.7% | 0.2% | -1.4% | -1.5% | -9.4% |
| Nrf2 inh | ? | 17.8µM* | . | 20.6µM* | . | -12.2% |

13) COC(=O)c1c(C)oc2c1cc(NS(=O)(=O)c1c(C)cc(C)cc1C)c1ccccc12
14) O=C(N/C(=C/c1cccc(Br)c1)c1nc(=S)[nH][nH]1)c1ccccc1
15) Cc1ccc(C(=O)N/C(=C\c2ccc(Br)cc2)c2nc(=S)[nH][nH]2)cc1
16) O=C(Nc1cccc(C(F)(F)F)c1)C1CCCN(S(=O)(=O)c2cccc3nsnc23)C1 (stereo unspecified)
17) CSc1ncccc1C(=O)OCC(=O)NCCC1=CCCCC1
18) O=C(COC(=O)c1cccnc1Cl)NCCC1=CCCCC1

| Screen / compound no. | 13 | 14 | 15 | 16 | 17 | 18 |
| --- | --- | --- | --- | --- | --- | --- |
| TCR activator | . | -2.4%[46.1 µM] | -26.3% | . | -3.9% | -1.6% |
| A549 tox | -5.7% | -3.1% | 25.9µM* | 0.4% | -0.3% | 1.2% |
| miR-21 reporter | 17.5% | 19.3% | 12.2% | 7.5% | . | 1.3% |
| Nrf2 activator | 3.6% | ? | 3.0% | 2.9% | -0.4% | 0.1% |
| ClpP mod | -8.0% | -0.6% | -1.1% | 62.7% | 0.5% | 15.8µM* |
| Nrf2 inh | -88.0% | 4.8% | ? | ? | 14.1% | 1.8% |

19) Nc1ccn([C@@H]2O[C@H](C(=O)N(CCC3=CCCCC3)CC3CC3)[C@@H](O)[C@H]2O)c(=O)n1
20) CCOc1ccc(N2C(=O)C(CC(=O)Nc3ccccc3)N(Cc3ccccn3)C2=S)cc1 (stereo unspecified)
21) CCOc1ccc(N2C(=O)C(CC(=O)Nc3ccc(F)cc3)N(Cc3ccccn3)C2=S)cc1 (stereo unspecified)
22) CC(C)(C)OC(=O)N1CCC(C(=O)Nc2ccc(C(=O)NC3CC3)cc2)CC1
23) Cc1oc(-c2ccccc2)cc1C(=O)Nc1cccc(/C=C/C(=O)O)c1
24) CN(C)c1ccc(/C=C2/C[N+](C)(C)C/C(=C/c3ccc(N(C)C)cc3)C2=O)cc1
25) CCOC(=O)c1c(N)c(C#N)c2n1CCCCC2
26) CCOC(=O)c1c(N)c(C#N)c2n1CCCC2
27) CC(=O)Nc1c(Cl)cc2c(c1Cl)C(=O)c1ccccc1-2

| Screen / compound no. | 19 | 20 | 21 | 22 | 23 | 24 | 25 | 26 | 27 |
| --- | --- | --- | --- | --- | --- | --- | --- | --- | --- |
| TCR activator | . | -34.2% | 2.1% | 5.9% | 2.8% | 7.3% | 4.5% | -0.6% | 0.5% |
| A549 tox | . | ? | -6.8% | -1.3% | -25.3% | 14.6µM* | 0.1% | 5.8% | -0.3% |
| miR-21 reporter | . | 18.2% | 10.0% | . | -19.8% | . | -7.5% | -11.2% | . |
| Nrf2 activator | -0.7% | 22.6% | 15.2% | 0.3% | 2.2% | 25.2% | -0.4% | 3.0% | 9.7% |
| ClpP mod | -0.7% | 0.8% | . | 1.1% | . | 1.5% | -1.9% | 31.6µM* | -17.4% |
| Nrf2 inh | . | 23.1µM* | ? | -4.9% | 23.1µM* | ? | -8.8% | . | -5.5% |
